By UniProt entry, the sequences of proteins in these tests, tags left out. Where a name states a change or a piece, a line headed by the entry shows the natural chain unless it says otherwise.
UniProt Q99814: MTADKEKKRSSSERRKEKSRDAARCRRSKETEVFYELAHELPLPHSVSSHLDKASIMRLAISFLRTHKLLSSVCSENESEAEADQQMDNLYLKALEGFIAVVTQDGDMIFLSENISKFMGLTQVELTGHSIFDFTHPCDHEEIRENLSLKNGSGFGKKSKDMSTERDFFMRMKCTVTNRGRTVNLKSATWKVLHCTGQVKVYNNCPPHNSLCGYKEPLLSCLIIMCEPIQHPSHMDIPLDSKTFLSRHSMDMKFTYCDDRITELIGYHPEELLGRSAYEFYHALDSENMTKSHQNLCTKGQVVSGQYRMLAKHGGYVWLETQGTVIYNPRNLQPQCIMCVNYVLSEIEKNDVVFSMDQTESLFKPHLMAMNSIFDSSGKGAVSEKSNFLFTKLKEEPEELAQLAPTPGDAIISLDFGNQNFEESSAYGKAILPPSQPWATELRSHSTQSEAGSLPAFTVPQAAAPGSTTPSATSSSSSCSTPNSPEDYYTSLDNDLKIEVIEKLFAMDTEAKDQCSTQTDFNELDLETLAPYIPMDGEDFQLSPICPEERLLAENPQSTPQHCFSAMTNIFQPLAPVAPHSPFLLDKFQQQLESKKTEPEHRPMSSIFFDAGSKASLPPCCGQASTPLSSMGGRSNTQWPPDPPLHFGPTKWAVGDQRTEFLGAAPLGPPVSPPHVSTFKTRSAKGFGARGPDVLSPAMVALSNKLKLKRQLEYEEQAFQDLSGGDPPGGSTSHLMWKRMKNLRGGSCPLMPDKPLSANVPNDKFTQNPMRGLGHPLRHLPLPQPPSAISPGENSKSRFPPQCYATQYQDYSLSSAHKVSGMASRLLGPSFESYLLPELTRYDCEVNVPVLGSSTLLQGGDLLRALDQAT

In patent US12071411B2, “Inhibitors of HIF-2α and methods of use thereof” (ARCUS BIOSCIENCES, INC., priority 2021, dated 2024):

Tests used:
HIF-2α [1] = biological target: T1, HIF-2α (Homo sapiens, UniProt Q99814); assay: HIF-2α Luciferase Reporter Assay (serum), HRE-luciferase 786-0 cells in 100% human serum; type: cell-based; settings: 786-0 reporter cells, overnight incubation, read-out: Serum Potency
Description: (§1) Generation of HIF-2α Luciferase 786-0 Cell Line:
(§2) Stable cell lines were generated by transducing 786-0 cells (ATCC, CRL-1932) with Cignal Lenti HIF Luc Reporter lentivirus (CLS-007L, Qiagen) according to the manufacturer's guidelines. In brief, 0.3×10^6 786-0 cells were transduced with lentivirus at a multiplicity of infection (MOI) of 25 for 24 hours. After transduction, cells were replenished with fresh RPMI 1640 Medium (Cat. No. 11875085, Thermo Fisher) supplemented with 10% FBS (Cat. No. A3160502, Gibco), 2 mM GlutaMAX™ (Cat. No. 35050-061, Invitrogen) and 100 units of penicillin and 100 μg of streptomycin/mL (Cat. No 15070063, Thermo Fisher) for another 24 hours. Antibiotic selection was performed in cell media containing 4 μg/mL of puromycin. After 7 days of antibiotic selection, stable pools of surviving cells were expanded and used in a luciferase reporter assay.
HIF-2α Luciferase Reporter Assay (Serum):
An HRE-luciferase stable reporter 786-0 cell line was maintained in active culture using RPMI 1640 (GIBCO) media supplemented with 1% penicillin-streptomycin, 1% GlutaMAX™, 10% FBS-One Shot (GIBCO) and 4 ug/ml of puromycin (Invitrogen). […] 40 ul/well of ONE-Glo™ reagent was added and allowed to incubate for 10 minutes before reading the luminescence signal on the Envision (PerkinElmer). Data was analyzed using 4-parameter logistic equation to generate IC50.

HIF-2α [2] = biological target: T1, HIF-2α; assay: HIF-2α Luciferase Reporter Assay (serum free) in HIF-Luc-786-0 cells; type: cell-based; settings: Opti-MEM, 786-0 reporter cells, 20 hours incubation
Description: as §1
as §2, with “Antibiotic selection was performed in cell media containing 4 μg/mL of puromycin. After 7 days of antibiotic selection, stable pools of surviving cells were expanded and used in a luciferase reporter assay.” left out
On day one, 20 uL of HIF-Luc-786-0 cells in Opti-MEM™ (Cat. No. 31985088, Thermo Fisher) were seeded into each well of a 384 well white opaque plate (Corning 3570) and incubated at 37° C. and 5% CO2. […] After 20 hours incubation at 37° C. and 5% CO2, luciferase activity was determined using ONE-Glo™ Luciferase Assay Reagent (E6110, Promega) following the manufacture's recommended procedure. Briefly, 40 uL of ONE-Glo™ luciferase reagents were added to each well and luciferase signals were measured using an Envision 2102 Multilabel Reader. Percentage maximum activity in each test well was calculated based on DMSO (maximum activity) and no cell control wells (baseline activity). […]

CO[C@H](CCn1nc(C(F)(F)F)c2c1CCC(F)(F)[C@H]2O)C(F)(F)F [Example 12, (4S)-5,5-difluoro-1-[(3R)-4,4,4-trifluoro-3-methoxybutyl]-3-(trifluoromethyl)-6,7-dihydro-4H-indazol-4-ol]
IC50 (HIF-2α [1]): < 100 nM | IC50 (HIF-2α [2]): < 100 nM
